The results in this text go back to PMC8210154, “Tumor-selective, antigen-independent delivery of a pH sensitive peptide-topoisomerase inhibitor conjugate suppresses tumor growth without systemic toxicity” (NAR Cancer, 2021).

In this series the test system is HCT116 xenografts. Kind of series: HCT116 xenografts in nude mice. The settings on record: 2.3 mg/kg i.p. QDx4/wk x 3, HCT116 xenograft mice.

The structures appear in SMILES notation.

Turning to `CC[C@@]1(O)C(=O)OCc2c1cc1n(c2=O)Cc2c-1nc1cc(F)c(C)c3c1c2[C@@H](N)CC3` [exatecan], the “animals euthanized before completion because of severe morbidity due to drug toxicity” value is recorded as 50%.
